In US20250313563A1, “GLYCOGEN SYNTHASE KINASE 3 INHIBITORS AND USES THEREOF” (The Broad Institute, Inc., priority 2022, published 2025) one finds IC50 data, which are given here for 24 molecules.

Protein sequences, listed by entry. Tags and fused reporters are not part of them.
UniProt P49841, whole entry: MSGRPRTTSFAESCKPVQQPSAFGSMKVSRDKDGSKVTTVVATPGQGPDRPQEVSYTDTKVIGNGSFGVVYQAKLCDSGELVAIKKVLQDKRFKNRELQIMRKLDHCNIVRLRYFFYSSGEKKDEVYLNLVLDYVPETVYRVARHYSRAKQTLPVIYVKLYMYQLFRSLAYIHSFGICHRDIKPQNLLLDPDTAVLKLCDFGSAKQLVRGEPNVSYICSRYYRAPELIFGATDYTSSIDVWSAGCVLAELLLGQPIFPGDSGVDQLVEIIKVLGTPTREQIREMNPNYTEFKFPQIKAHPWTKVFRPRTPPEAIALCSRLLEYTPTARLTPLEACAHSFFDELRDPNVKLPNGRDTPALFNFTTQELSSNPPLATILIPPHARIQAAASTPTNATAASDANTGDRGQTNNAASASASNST
UniProt P49840, whole entry: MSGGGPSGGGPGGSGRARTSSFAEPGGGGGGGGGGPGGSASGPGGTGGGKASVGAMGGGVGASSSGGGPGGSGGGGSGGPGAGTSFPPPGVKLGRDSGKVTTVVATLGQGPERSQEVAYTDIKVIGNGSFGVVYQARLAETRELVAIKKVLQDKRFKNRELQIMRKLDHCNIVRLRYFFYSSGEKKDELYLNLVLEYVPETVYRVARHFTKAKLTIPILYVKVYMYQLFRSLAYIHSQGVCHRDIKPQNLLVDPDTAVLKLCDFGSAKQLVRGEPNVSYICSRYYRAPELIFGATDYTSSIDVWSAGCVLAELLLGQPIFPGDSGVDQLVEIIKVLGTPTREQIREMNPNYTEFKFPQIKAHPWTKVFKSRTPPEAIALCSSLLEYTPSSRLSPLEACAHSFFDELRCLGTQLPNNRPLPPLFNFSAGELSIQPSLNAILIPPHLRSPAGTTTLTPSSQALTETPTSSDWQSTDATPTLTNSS

In assay [1] the target is GSK3b (GST-full length GSK3b) (Homo sapiens (Human), UniProt P49841). The assay can be described thus: GSK3b TR-FRET kinase assay. It counts as biochemical. (In general: Time-resolved FRET reads energy transfer from a long-lived donor to a nearby acceptor.)
The target in assay [2] is GSK3α (GST-full length GSK3α) (Homo sapiens (Human), UniProt P49840). The assay can be described thus: GSK3α TR-FRET kinase assay. It counts as biochemical.
Setting [3] is: read-out: GSK3-B TR-FRET BIOCHEMICAL (TR-FRET), IC50, 1 nM GSK3b, 2 μM ATP, 30 minute preincubation.
Where [4] appears, read: read-out: GSK3-A TR-FRET BIOCHEMICAL (TR-FRET), IC50, 1 nM GSK3α, 4 μM ATP, 30 minute preincubation.
[5] abbreviates: read-out: GSK3-B TR-FRET BIOCHEMICAL (TR-FRET), IC50, 1 nM GSK3b, 2 μM ATP, 30 minute preincubation (Table 16).
Where [6] appears, read: read-out: GSK3-A TR-FRET BIOCHEMICAL (TR-FRET), IC50, 1 nM GSK3α, 4 μM ATP, 30 minute preincubation (Table 16).
[7] abbreviates: read-out: GSK3-B (TR-FRET 1 mM ATP), GMean, IC50, 1 mM ATP, geometric mean.
Setting [8] is: read-out: GSK3-B TR-FRET BIOCHEMICAL (TR-FRET), GMean, IC50, 1 nM GSK3b, 2 μM ATP, 30 minute preincubation, geometric mean.
[9] abbreviates: read-out: GSK3-A (TR-FRET 1 mM ATP), GMean, IC50, 1 mM ATP, geometric mean.
[10] abbreviates: read-out: GSK3-A TR-FRET BIOCHEMICAL (TR-FRET), GMean, IC50, 1 nM GSK3α, 4 μM ATP, 30 minute preincubation, geometric mean.
Setting [11] is: read-out: GSK3-B TR-FRET BIOCHEMICAL (TR-FRET);, 1 nM GSK3b, 2 μM ATP, 30 minute preincubation, Table 16.
The mark [12] stands for this setting: read-out: GSK3-A TR-FRET BIOCHEMICAL (TR-FRET);, 1 nM GSK3α, 4 μM ATP, 30 minute preincubation, Table 16.

pIC50: −log10 of the molar value. Like-named read-outs stand apart in the source and are kept apart here.

`CC[C@@]1(c2cccc(-c3ccnc(C)c3)c2)C2=C(C[C@H](C)NC2=O)Nc2n[nH]cc21`: the figures for the pIC50 in assay [1] (setting [3]) and in assay [2] (setting [4]) were less than 5.30 and 5.30 to 6.00, respectively.
In the case of `CC[C@]1(c2cccc(C(F)(F)F)c2)C2=C(CCC2=O)Nc2n[nH]cc21`, the pIC50 in assay [1] (setting [5]) is less than 5.30; in assay [2] (setting [6]), 5.30 to 6.00.
Consider `CC[C@]1(c2cccc(-c3cnn(C)c3)c2)C2=C(CC(C)(C)CC2=O)Nc2n[nH]c(C(F)(F)F)c21`, for which the pIC50 in assay [1] (setting [7]), in assay [1] (setting [8]), in assay [2] (setting [9]) and in assay [2] (setting [10]) was more than 7.00 in each case.
For the molecule `CCC1(c2cccc(-c3cc(C)nc(OC(F)F)c3)c2)C2=C(CC(C)(C)CC2=O)Nc2n[nH]cc21` (centres unmarked), the figures for the pIC50 in assay [1] (setting [11]) and in assay [2] (setting [12]) were 5.30 to 6.00 and 6.00 to 7.00, respectively.
With `CC[C@@]1(c2cccc(-c3cn(C)nc3C)c2)C2=C(CC(C)(C)NC2=O)Nc2n[nH]c(C(F)F)c21`, the pIC50 in assay [1] (setting [7]) was 6.00 to 7.00; in assay [1] (setting [5]), more than 7.00; in assay [2] (setting [9]), more than 7.00; in assay [2] (setting [6]), more than 7.00.
For `CCC1(c2cccc(-c3cc(C)ncc3C)c2)C2=C(CC(C)(C)CC2=O)Nc2n[nH]c(C)c21` (single isomer, unassigned), the pIC50 in assay [1] (setting [5]) and in assay [2] (setting [6]) was more than 7.00 in each case.
For the molecule `CC[C@]1(c2cccc(N(C)c3ccccn3)c2)C2=C(CC(C)(C)CC2=O)Nc2n[nH]cc21`, the pIC50 in assay [1] (setting [8]) and in assay [2] (setting [10]) was more than 7.00 each time.
In the case of `CCC1(c2cccc(-c3ccnc(OC)c3)c2)C2=C(CC(C)(C)CC2=O)Nc2n[nH]c(C)c21` (centres unmarked) [Compound 913053], the pIC50 in assay [1] (setting [5]) is 6.00 to 7.00; in assay [2] (setting [6]), more than 7.00.
As to `CC(C)(C)Cc1[nH]nc2c1[C@]1(CCc3ccc(F)cc31)C1=C(CC(C)(C)CC1=O)N2`, the values for the pIC50 in assay [1] (setting [8]) and in assay [2] (setting [10]) were more than 7.00 and 6.00 to 7.00, respectively.
Regarding `CC[C@]1(c2cccc(C(F)(F)F)c2)C2=C(C[C@]3(CCN(C)C3=O)CC2=O)Nc2n[nH]cc21`, the figures for the pIC50 in assay [1] (setting [11]) and in assay [2] (setting [12]) were 6.00 to 7.00 and more than 7.00, respectively.
Consider `CC[C@]1(c2cccc(C(F)(F)F)c2)C2=C(C[C@@H](C)NC2=O)Nc2n[nH]cc21`, for which the pIC50 in assay [1] (setting [3]) is 6.00 to 7.00; in assay [2] (setting [4]) it was more than 7.00.
Turning to `CC[C@@]1(c2cccc(-c3ccnc(C)c3)c2)C2=C(Nc3n[nH]cc31)[C@H]1CC[C@H](C1)C2=O`, the pIC50 was less than 5.30 in assay [1] (setting [11]) and 5.30 to 6.00 in assay [2] (setting [12]).
Take `CC[C@@]1(c2cccc(-c3ccncc3C)c2)C2=C(C[C@]3(CCOC3)NC2=O)Nc2n[nH]cc21`: the pIC50 was less than 5.30 in assay [1] (setting [8]) and 5.30 to 6.00 in assay [2] (setting [10]).
For the molecule `CC[C@@]1(c2cccc(-c3cc(OC)ncc3F)c2)C2=C(CC(C)(C)NC2=O)Nc2n[nH]cc21`, the pIC50 in assay [1] (setting [7]) is less than 5.30; in assay [1] (setting [8]), more than 7.00; in assay [2] (setting [9]), less than 5.30; in assay [2] (setting [10]) it was more than 7.00.
Take `CC[C@@]1(c2cccc(N3CCc4ccncc43)c2)C2=C(CC(C)(C)CC2=O)Nc2n[nH]cc21`: the pIC50 in assay [1] (setting [5]) is 6.00 to 7.00; in assay [2] (setting [6]), more than 7.00.
With `CC[C@]1(c2cccc(CN(C)c3ccc(F)nc3)c2)C2=C(CC(C)(C)CC2=O)Nc2n[nH]cc21`, the pIC50 in assay [1] (setting [11]) and in assay [2] (setting [12]) was less than 5.30 throughout.
For the molecule `CCC1(c2cccc(-c3cc(C)ncc3F)c2)C2=C(CC(C)(C)NC2=O)Nc2n[nH]cc21` (centres unmarked) [Compound 947804], the pIC50 in assay [1] (setting [7]) was less than 5.30; in assay [1] (setting [8]), 6.00 to 7.00; in assay [2] (setting [9]), 6.00 to 7.00; in assay [2] (setting [10]), more than 7.00.
As to `CC[C@@]1(c2cccc(-c3ccncc3C(F)(F)F)c2)C2=C(CC(C)(C)CC2=O)Nc2n[nH]cc21`, the pIC50 is 5.30 to 6.00 in assay [1] (setting [11]) and 6.00 to 7.00 in assay [2] (setting [12]).
On to `CC[C@]1(c2cccc(C(F)(F)F)c2)C2=C(CN(Cc3ccccc3)C2=O)Nc2n[nH]cc21`, for which the pIC50 in assay [1] (setting [3]) is less than 5.30; in assay [2] (setting [4]) it was 5.30 to 6.00.
Regarding `CC[C@@]1(c2cccc(-c3ccnc(C)c3C)c2)C2=C(CC(C)(C)NC2=O)Nc2n[nH]cc21`, the values for the pIC50 in assay [1] (setting [8]) and in assay [2] (setting [10]) were less than 5.30 and 5.30 to 6.00, respectively.
For the molecule `CC[C@]1(c2cccc(Br)c2)C2=C(C[C@H](C)CC2=O)Nc2n[nH]c(C(F)(F)F)c21`, the pIC50 in assay [1] (setting [8]) and in assay [2] (setting [10]) was more than 7.00 throughout.
On to `CC(C)(C)Cc1[nH]nc2c1C1(CCc3ccc(F)cc31)C1=C(CC(C)(C)CC1=O)N2` (centres unmarked), for which the pIC50 in assay [1] (setting [8]) was more than 7.00; in assay [2] (setting [10]), 6.00 to 7.00.
`CC(C)(C)Cc1[nH]nc2c1C1(CCCc3ccccc31)C1=C(CC(C)(C)CC1=O)N2` (centres unmarked): the pIC50 in assay [1] (setting [8]) was more than 7.00; in assay [2] (setting [10]), 6.00 to 7.00.
As to `CCC1(c2cccc(Cl)c2)C2=C(CC(C)(C)CC2=O)Nc2n[nH]c(C(F)(F)F)c21` (centres unmarked) [Compound 801309], the pIC50 in assay [1] (setting [8]) and in assay [2] (setting [10]) was more than 7.00 each time.
